For one molecule, IC50 and Ki results are on record in article doi:10.1101/2025.03.31.646177v2.

As a reminder, the IC50 is the concentration at which inhibition is half-maximal. The Ki is a measure of affinity in units of concentration, obtained from inhibition or displacement.

The target in assay [1] is HDAC6 (human recombinant) (Homo sapiens, UniProt Q9UBN7). In words: fluorogenic HDAC assay. The class given is biochemical. The following applies: pH […] °C, no preincubation.
Assay [2] deals with T1, HDAC6-HiBiT (endogenously tagged HDAC6 in HeLa HDAC6-HiBiT LgBiT cells) (Homo sapiens, UniProt Q9UBN7). In words: NanoBRET competition with tracer […]. Format: cell-based. The settings on record: whole cells, […] °C, […] h, […] tracer […]; unreliable (autofluorescence, upper estimate).
In assay [3] the target is T1, HDAC6-HiBiT (endogenously tagged HDAC6 in HeLa HDAC6-HiBiT LgBiT cells). Description: NanoBRET competition with tracer […], Cheng-Prusoff. Format: cell-based. The settings on record: whole cells, […] °C, […] h, […] tracer […]; unreliable (autofluorescence, upper estimate).

As to `O=C1CCC(N2C(=O)c3cccc(NCCOCCOCCn4cc(CCCCN(Cc5ccc(C(=O)NO)cc5)C(=O)Nc5ccccc5)nn4)c3C2=O)C(=O)N1` (stereo not drawn), the IC50 in assay [1] was 26 nM; in assay [2], 590 ± 210 nM. Further, the Ki in assay [3] was 83 ± 30 nM.
